From patent publication US8741926B2, “Macrocyclic inhibitors of hepatitis C virus” (Tibotec Pharmaceuticals Ltd., priority 2005, dated 2014)

Protein sequences, listed by entry. Tags and fused reporters are not part of them. Residues count along the entry.
UniProt P27958, 1027-1657: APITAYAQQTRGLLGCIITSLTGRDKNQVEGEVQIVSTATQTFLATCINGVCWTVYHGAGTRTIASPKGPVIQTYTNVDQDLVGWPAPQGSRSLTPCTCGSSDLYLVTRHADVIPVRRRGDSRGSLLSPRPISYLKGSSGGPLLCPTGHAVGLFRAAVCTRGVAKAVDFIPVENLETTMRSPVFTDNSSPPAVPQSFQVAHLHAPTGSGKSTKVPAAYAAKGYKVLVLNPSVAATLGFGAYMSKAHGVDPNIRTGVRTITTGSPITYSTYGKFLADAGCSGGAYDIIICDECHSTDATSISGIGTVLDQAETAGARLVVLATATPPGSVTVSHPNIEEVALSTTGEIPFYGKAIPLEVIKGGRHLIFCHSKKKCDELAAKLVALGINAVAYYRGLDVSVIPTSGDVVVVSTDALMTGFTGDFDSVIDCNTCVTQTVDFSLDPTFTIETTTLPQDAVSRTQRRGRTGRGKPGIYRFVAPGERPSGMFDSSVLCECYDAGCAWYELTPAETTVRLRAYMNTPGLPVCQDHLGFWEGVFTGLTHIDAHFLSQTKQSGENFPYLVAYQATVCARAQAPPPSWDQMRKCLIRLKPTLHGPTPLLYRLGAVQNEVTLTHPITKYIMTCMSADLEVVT

Target: HCV NS3/4A protease (Hepatitis C virus genotype 1a (isolate H77) (HCV), UniProt P27958)
Assay: Inhibition assay (enzymatic assay) of full-length NS3 protease with NS4A cofactor
Assay type: biochemical
Details: full-length NS3 protease 1 nM, 25 μM NS4A cofactor, depsipeptide substrate, competitive inhibition model
Description: [Landro, 1997 #Biochem 36 9340-9348]. […] The solutions were stored at −20° C. between measurements.
[Liu, 1999 Analytical Biochemistry 267 331-335].

SMILES: COc1ccc2c(O[C@@H]3C[C@H]4C(=O)N[C@]5(C(=O)NS(=O)(=O)C6CC6)C[C@H]5/C=C\CCCCN(C)C(=O)[C@@H]4C3)cc(-c3nc(C(C)C)cs3)nc2c1Cl [Compound 56, N-[17-[8-chloro-2-(4-isopropylthiazole-2-yl)-7-methoxyquinolin-4-yloxy]-13-methyl-2,14-dioxo-3,13-diazatricyclo[13.3.0.0^4,6]-octadec-7-ene-4-carbonyl](cyclopropyl)sulfonamide]
- Ki: 0.0001 µM
